Legend:
hERG channels = details: cited from earlier work
[1] = half-life method
[2] = test system: alcohol-induced liver steatosis; details: twice-daily repeated oral dosing for 14 days
[3] = mouse, in vivo
hCB1 = hCB1 (Homo sapiens, UniProt P21554); details: ratio of Ki hCB2 / Ki hCB1
MDCK-mdr1 cells = details: percent transported apical to basal, 10 μM, 1 h, 37 °C

Amino acid sequences for entries named in this document (tags omitted).
UniProt P21554, whole entry: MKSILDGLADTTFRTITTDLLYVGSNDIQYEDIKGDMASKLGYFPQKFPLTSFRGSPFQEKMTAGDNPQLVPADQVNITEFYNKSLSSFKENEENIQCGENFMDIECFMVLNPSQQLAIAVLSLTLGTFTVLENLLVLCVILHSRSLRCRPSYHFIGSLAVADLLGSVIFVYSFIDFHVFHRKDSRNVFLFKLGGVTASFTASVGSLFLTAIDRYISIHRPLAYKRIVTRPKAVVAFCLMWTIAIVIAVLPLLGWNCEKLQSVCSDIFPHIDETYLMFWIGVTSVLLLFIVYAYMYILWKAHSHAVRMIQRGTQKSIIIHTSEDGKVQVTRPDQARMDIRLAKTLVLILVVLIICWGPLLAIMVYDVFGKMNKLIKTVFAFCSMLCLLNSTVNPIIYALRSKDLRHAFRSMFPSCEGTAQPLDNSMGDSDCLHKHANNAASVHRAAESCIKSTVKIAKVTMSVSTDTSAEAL

Row | SMILES | selectivity Ki CB2/CB1 (hCB1) | MDCK-mdr1 A to B (MDCK-mdr1 cells) | further results
1 | CN1CCN(c2ncnc3c2nc(-c2ccccc2Cl)n3-c2ccc(Cl)cc2)CC1 [Compound 6, 8-(2-Chlorophenyl)-9-(4-chlorophenyl)-6-(4-methylpiperazin-1-yl)-9H-purine] |  |  | hERG activity (hERG channels): undesirable activity
2 | Clc1ccc(-n2c(-c3ccccc3Cl)nc3c(N4CCN(Cc5ccccc5Cl)CC4)ncnc32)cc1 [Compound 25, 6-[4-(2-Chlorobenzyl)piperazin-1-yl]-8-(2-chlorophenyl)-9-(4-chlorophenyl)-9H-purine] |  |  | human-hepatic-microsomal stability clearance [1]: clearance: 14 mL/min/kg; accumulation of compound in brain at end of steatosis study [2]: no significant accumulation of the compound; brain accumulation upon repeated dosing [3]: did not accumulate in the brain
3 | FC(F)(F)c1ccccc1CN1CCN(c2ncnc3c2nc(-c2ccccc2Cl)n3-c2ccc(Cl)cc2)CC1 [Compound 28, 8-(2-Chlorophenyl)-9-(4-chlorophenyl)-6-{4-[2-(trifluoromethyl)-benzyl]piperazin-1-yl}−9H-purine] | >2000 |  | 
4 | FC(F)(F)Oc1ccccc1CN1CCN(c2ncnc3c2nc(-c2ccccc2Cl)n3-c2ccc(Cl)cc2)CC1 [Compound 29, 8-(2-Chlorophenyl)-9-(4-chlorophenyl)-6-{4-[2-(trifluoromethoxy)benzyl]piperazin-1-yl}−9H-purine] | >5000 |  | 
5 | Clc1ccc(CN2CCN(c3ncnc4c3nc(-c3ccccc3Cl)n4-c3ccc(Cl)cc3)CC2)cc1 [Compound 33, 6-[4-(4-Chlorobenzyl)piperazin-1-yl]-8-(2-chlorophenyl)-9-(4-chlorophenyl)-9H-purine] |  | 0% | 
6 | COc1ccc(CN2CCN(c3ncnc4c3nc(-c3ccccc3Cl)n4-c3ccc(Cl)cc3)CC2)cc1 [Compound 35, 8-(2-Chlorophenyl)-9-(4-chlorophenyl)-6-[4-(4-methoxybenzyl)-piperazin-1-yl]-9H-purine] |  | 0% | 
